The list shows a part of the results, in another mix than the full data. Records with an inconclusive call do not appear. Activity calls are given as the source filed them. Unless noted, calls follow the shape of the dose curve; as a rule, active = well fitted curve in the direction sought with a large enough effect; inconclusive = small, poorly fitted or top-dose-only effect, or another doubt; inactive = no such curve, though single readings can be large; an effect the other way counts as inactive or inconclusive.
Assays:
[1] = NFAT Signaling Pathway (AID 444; active = well fitted curve in either direction with a large enough effect, not every such curve was filed as active;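 also: carbachol stimulus at about its EC50 of 1 µM final; % is scaled to controls: 0 for no effect and ±100 for the full control effect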); settings: Jurkat NFAT-bla M1, carbachol, beta-lactamase ratio, 5 h; at 7.69 µM (top of the series) unless noted
[2] = Stat Signaling Pathway (AID 446; active = well fitted curve in either direction with a large enough effect, not every such curve was filed as active;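 also: ME-180 cervical cancer cells given 40 pM IL-6 alongside compound; SIE-controlled beta-lactamase reporter measured as 460/530 nm FRET emission ratio; % is scaled to controls: 0 for no effect and ±100 for the full control effect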); settings: ME-180 SIE beta-lactamase reporter, IL-6 stimulated, 5 h; at 7.69 µM (top of the series) unless noted
Summary of the method: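 ME-180 cells carrying a SIE-driven beta-lactamase reporter are stimulated with 40 pM IL-6 for 5 h at 37C in the presence of compound. The 460/530 nm FRET substrate ratio is read after 2.5 h at RT. Data are normalised to 300 pM IL-6 and to 125 nM JAK inhibitor controls.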

Amino acid sequences for entries named in this document (tags omitted). A change or cut given only in a name is not applied to a line headed by its entry.
UniProt Q07343: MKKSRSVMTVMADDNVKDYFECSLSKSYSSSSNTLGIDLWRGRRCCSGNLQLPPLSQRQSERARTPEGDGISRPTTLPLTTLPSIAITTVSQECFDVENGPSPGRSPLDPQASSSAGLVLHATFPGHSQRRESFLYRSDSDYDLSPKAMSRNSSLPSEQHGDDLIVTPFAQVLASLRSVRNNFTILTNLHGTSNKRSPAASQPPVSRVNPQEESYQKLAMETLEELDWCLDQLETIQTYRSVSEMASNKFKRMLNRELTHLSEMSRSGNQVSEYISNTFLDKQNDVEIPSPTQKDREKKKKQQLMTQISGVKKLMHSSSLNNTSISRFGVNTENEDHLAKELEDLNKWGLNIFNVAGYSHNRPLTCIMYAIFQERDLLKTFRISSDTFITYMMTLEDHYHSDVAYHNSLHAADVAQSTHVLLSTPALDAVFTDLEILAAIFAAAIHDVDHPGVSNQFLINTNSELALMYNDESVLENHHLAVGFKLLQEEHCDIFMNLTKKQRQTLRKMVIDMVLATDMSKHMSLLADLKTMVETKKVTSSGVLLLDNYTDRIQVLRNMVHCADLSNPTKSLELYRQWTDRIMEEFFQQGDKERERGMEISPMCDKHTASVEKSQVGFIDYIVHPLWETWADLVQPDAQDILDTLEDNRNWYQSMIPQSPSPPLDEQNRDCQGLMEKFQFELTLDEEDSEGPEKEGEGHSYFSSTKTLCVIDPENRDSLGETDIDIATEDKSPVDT

[3] = target: Mitogen-activated protein kinase 10 (Mus musculus) (UniProt Q61831); assay: JNK3 AlphaScreen Assay (AID 530; active = well fitted curve in either direction with a large enough effect, not every such curve was filed as active;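 also: kinase came from lysate of stimulated human HepG2 cells; signal reports phosphorylation of biotinylated GST-cJun 1-79 at Ser73 with 10 µM ATP; % is scaled to controls: 0 for no effect and ±100 for the full control effect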); settings: JNK3 lysate, c-Jun phosphorylation
Summary of the method: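 Pre-activated (IL-1β/TNFα) JNK3 in HepG2 lysates phosphorylates biotin-GST-cJun(1-79), 10 uM ATP; anti-phospho-cJun(Ser73) AlphaScreen read at room temperature, pH 7.6 Tris buffer. Compounds pre-incubated 15 min as titrations.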

[4] = Cell Viability - N2a (AID 540); settings: N2a mouse neuroblastoma cell viability; at 92.2 µM (top of the series);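 also: plate controls were DMSO alone for no effect and tamoxifen control for full effect; nearly all actives have a fitted effect of over 45% in size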
Summary of the method: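 Luminescent ATP signal (CellTiter-Glo, 20 min at room temperature) served as the viability read-out after N2a cells were treated with compounds for 40 hours at 37 °C. Concentration-response data were fitted to the Hill equation for AC50.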

[5] = Cell Viability - NIH 3T3 (AID 541); settings: NIH 3T3 cell viability, qHTS; at 92.2 µM (top of the series);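 also: plate controls were DMSO alone for no effect and tamoxifen positive control for full effect; nearly all actives have a fitted effect of over 25% in size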
Summary of the method: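 Luminescent ATP signal (CellTiter-Glo) served as the viability read-out after NIH 3T3 cells were exposed to compounds over a concentration range for 40 hr at 37 °C. Hill-equation modelling of concentration-response data gave AC50.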

[6] = Cell Viability - HUV-EC-C (AID 542); also: % is scaled to controls: 0 for no effect and ±100 for the full control effect; nearly all actives have a fitted effect of over 35% in size
Summary of the method: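 qHTS cytotoxicity: HUV-EC-C, 1000 cells/well, 5 hr settle, compound 40 hr 37 °C, CellTiter-Glo, luminescence. AC50 via Hill equation.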

[7] = Cell Viability - H-4-II-E (AID 543); also: % is scaled to controls: 0 for no effect and ±100 for the full control effect; nearly all actives have a fitted effect of over 35% in size
Summary of the method: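 Luminescent ATP signal (CellTiter-Glo) served as the viability read-out, with cytotoxicity seen as a concentration-dependent ATP drop. Cells were treated for 40 hours in complete medium. AC50 values derive from Hill-equation modelling.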

[8] = Cell Viability - SH-SY5Y (AID 544); also: nearly all actives have a fitted effect of over 55% in size
Summary of the method: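 Luminescent ATP read-out (CellTiter-Glo) measures loss of viable SH-SY5Y neuroblastoma cells after 40 hr compound exposure at 37 °C. AC50 values derive from standard Hill modelling of qHTS concentration-response data.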

[9] = Cell Viability - Renal Proximal Tubule (AID 545); settings: renal proximal tubule cells viability, primary cells of rat origin; at 91.7 µM (top of the series); also: nearly all actives have a fitted effect of over 40% in size
Summary of the method: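 Rat kidney proximal tubule cells, freshly isolated; 1000 cells/well, 5 hr settle, compound 40 hr 37 °C. CellTiter-Glo 20 min RT, luminescence read. AC50 by standard Hill fit.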

[10] = Cell Viability - Mesenchymal (AID 546); settings: mesenchymal cells viability, qHTS; at 91.7 µM (top of the series);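 also: cells exposed to compound for 40 hours before reading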
Summary of the method: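 Human kidney mesenchymal cells from normal renal glomeruli, 1000 cells/well, rested 5 hr at 37 °C, then treated 40 hr at 37 °C in complete medium. Cellular ATP read by CellTiter-Glo luminescence; AC50 from Hill-equation fits.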

[11] = target: 3',5'-cyclic-AMP phosphodiesterase 4B (Homo sapiens) (UniProt Q07343); assay: qHTS Assay for Inhibitors of PDE-IV (AID 607; active = well fitted activation curve with a large enough effect in the main read-out, with a control signal flat, not every such curve was filed as active; also: % of control where 0% means no effect); settings: HEK293 ACTOne CNG channel cells, membrane potential fluorescence; at 22.9 µM (top of the series)
Summary of the method: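 HEK293 ACTOne cells with CNG channel (1000/well), endogenous PDE4; membrane potential dye, compounds up to 22.9 uM final. Fluorescence Ex 535/Em 590; RO 20-1724 (100 uM final) as reference.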

[12] = Cellular Toxicity (caspase-3) HepG2 (AID 654); settings: HepG2 caspase-3 activation, luminescence, 0% = DMSO only, 100% = tamoxifen; at 92.2 µM (top of the series);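 also: cells exposed to compound for 16 hours before reading; 0% = DMSO alone and 100% = caspase signal from 100 µM tamoxifen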
Summary of the method: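 Cells plated 5 hr at 37 °C, compound added, incubated 16 hr at 37 °C. Caspase-Glo 3/7 reagent followed, 20 min at room temperature, then luminescence read. Activation scored as signal increase; AC50 from Hill fit.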

[13] = Cellular Toxicity (caspase-3) Jurkat (AID 655); settings: Jurkat caspase-3 activation, luminescence, DMSO = 0%, tamoxifen = 100%; at 92.2 µM (top of the series);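 also: cells exposed to compound for 16 h at 37 °C before reading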
Summary of the method: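 Luminescent caspase-3/7 readout (aminoluciferin substrate cleavage) in human T-cell leukemia Jurkat cells after 16 hr compound exposure. Concentration-response normalized to DMSO and 100 uM tamoxifen; AC50 by standard Hill equation.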

[14] = Cellular Toxicity (caspase-3) HUV-EC-C (AID 656); settings: HUV-EC-C cells, caspase-3 activation (apoptosis), vehicle = 0, 100 µM tamoxifen = 100%; at 92.2 µM (top of the series)
Summary of the method: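 Luminescent caspase-3/7 activation (aminoluciferin substrate cleavage) in HUV-EC-C cells after 16 hr compound exposure, 37°C. Signal normalized to DMSO basal and 100 uM tamoxifen as 100%; AC50 from concentration-response fitted with the Hill equation.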

[15] = Cellular Toxicity (caspase-3) SHSY5Y (AID 657); settings: SH-SY5Y caspase-3 activation, DMSO zero, 10 µM staurosporine = 100%; at 91.7 µM (top of the series)
Summary of the method: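 Luminescent caspase-3/7 readout (aminoluciferin release) in SH-SY5Y cells after 16 h compound exposure in complete medium. Activity scaled between DMSO basal and 10 uM staurosporine as 100%; concentration-response fitted to Hill equation for AC50.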

[16] = Cellular Toxicity (caspase-3) BJ (AID 658); settings: BJ fibroblasts, luminescence, normalized: DMSO 0%, staurosporine 100%; at 91.7 µM (top of the series)
Summary of the method: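 BJ human foreskin fibroblasts, 1000 cells/well, treated 16 hours at 37 °C in complete medium; caspase 3/7 activity by Caspase-Glo luminescence after 1 hr at room temperature. Normalized to DMSO and 10 uM staurosporine; AC50 from Hill fits.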

[17] = Cellular Toxicity (caspase-3) MRC-5 (AID 659); settings: MRC-5 cells, luminescence, normalized: DMSO 0%, 10 µM staurosporine 100%; at 91.7 µM (top of the series)
Summary of the method: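 MRC-5 human normal lung fibroblasts, 1500 cells/well, treated 16 h at 37 °C in complete medium. Caspase 3/7 measured by Caspase-Glo luminescence after 1 h at room temperature. Normalized to DMSO and 10 uM staurosporine; AC50 from Hill fit.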

[18] = Cellular Toxicity (caspase-3) Mesangial (AID 660); settings: mesangial cells, normalized: DMSO 0%, 100 µM tamoxifen 100%; at 91.7 µM (top of the series);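 also: combined caspase 3 and 7 activity read by Caspase-Glo luminescence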
Summary of the method: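 Mesangial cells, 1000/well, 5 h settle at 37 °C; compound 16 h, 37 °C; Caspase-Glo 3/7 reagent 20 min RT; luminescence. Norm.: DMSO = 0%, tamoxifen 100 uM = 100%. AC50, Hill fit.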

[19] = Cellular Toxicity (caspase-3) SK-N-SH (AID 661); settings: SK-N-SH caspase-3 activation, qHTS, DMSO as zero, staurosporine as full; at 91.7 µM (top of the series)
Summary of the method: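 Human neuroblastoma SK-N-SH, 1500 cells/well, 5 hr pre-incubation, then compound 16 hr, 37 °C. Caspase-Glo 3/7 reagent, 1 hr RT, luminescence. Norm. to DMSO/10 uM staurosporine; Hill-fit AC50.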

[20] = Cellular Toxicity (caspase-3) H-4-II-E (AID 663); settings: H-4-II-E rat hepatoma, scaled: DMSO 0%, 100 µM tamoxifen 100%; at 92.2 µM (top of the series);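 also: cells exposed to compound for 16 hr before readout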
Summary of the method: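 Rat hepatoma H-4-II-E cells (1500/well) plated 5 hr, then exposed to compound titrations for 16 hr at 37 °C. Caspase-Glo 3/7 luminescence read after 20 min at RT; data normalized to DMSO and 100 uM tamoxifen, AC50 from Hill fits.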

[21] = Cellular Toxicity (caspase-3) N2a (AID 665); settings: N2a cells, luminescence, normalized: DMSO 0%, 10 µM staurosporine 100%; at 92.2 µM (top of the series);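 also: compound exposure lasted 16 h at 37 °C before readout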
Summary of the method: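 N2a cells, 1500/well, 5 h settle at 37 °C; cpd 16 h, 37 °C; Caspase-Glo 3/7, 1 h RT; luminescence. Norm: DMSO = 0, 10 uM staurosporine = 100%. AC50, Hill fit.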

[22] = Cellular Toxicity (caspase-3) NIH 3T3 (AID 666); settings: NIH 3T3 caspase-3 activation, apoptosis/toxicity, 0% DMSO, 100% is 100 µM tamoxifen; at 92.2 µM (top of the series);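 also: 0% = DMSO basal and 100% = 100 µM tamoxifen stimulation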
Summary of the method: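 Luminescence from aminoluciferin released by caspase-3/7 cleavage of a peptide substrate served as read-out. Mouse fibroblast NIH 3T3 cells were exposed to compounds over a concentration range for 16 hours, and AC50 values came from standard Hill modelling.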

[23] = Cellular Toxicity (caspase-3) Renal Proximal Tubule (AID 667); settings: renal proximal tubule cells, primary cells freshly taken from rat, solvent-only wells 0%, staurosporine 100%; at 91.7 µM (top of the series);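 also: cells exposed to compound for 16 hours at 37 °C before detection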
Summary of the method: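 Luminescent caspase 3/7 signal from peptide-aminoluciferin cleavage measures apoptosis in freshly isolated rat kidney proximal tubule cells after 16 h compound exposure. Concentration-response data are normalized to DMSO and 10 uM staurosporine, and AC50 values come from Hill equation fits.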

[24] = Cell Viability - LYMP2-001 (AID 921); settings: LYMP2-001 lymphoblastoid cell viability; at 92.2 µM (top of the series);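 also: cells exposed to compound for 24 h at 37 °C; 0% = DMSO only and full inhibition = tetraoctylammonium bromide control wells; nearly all actives have a fitted effect of over 70% in size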
[25] = MultiTox-Fluor Cytotoxicity Assay - LYMP1-001 - Dead Cells (AID 946); settings: LYMP1-001 lymphoblastoid cells, dead-cell protease fluorescence; at 92.2 µM (top of the series)
Summary of the method: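 LYMP1-001 lymphoblastoid cells (2500/well) treated 16 h at 37 C. Dead-cell protease cleavage of bis-AAF-R110 read at Ex/Em 485/520. Normalized to DMSO and 15 uM tetraoctylammonium bromide; AC50 from Hill fits.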

[26] = MultiTox-Fluor Cytotoxicity Assay - LYMP1-001 - Live Cells (AID 947); settings: LYMP1-001 lymphoblastoid cells, live-cell protease fluorescence viability; at 92.2 µM (top of the series);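 also: 0% = DMSO only and full inhibition = tetraoctylammonium bromide control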
[27] = Cell Viability - LYMP1-002 - Assay at 16 hr (AID 948); settings: LYMP1-002 lymphoblastoid cell viability; at 92.2 µM (top of the series);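 also: 0% = DMSO alone and full effect = 92 µM tetraoctylammonium bromide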
Summary of the method: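 LYMP1-002 human lymphoblastoid cells, 2500/well; 5 hr 37 C; cpd 16 hr 37 C; CellTiter-Glo 30 min RT; luminescence (ATP). Concentration-response, Hill-fit AC50. Pos ctrl tetraoctylammonium bromide.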

[28] = MultiTox-Fluor Cytotoxicity Assay - LYMP1-002 - Dead Cells (AID 960); settings: LYMP1-002 lymphoblastoid cells, dead-cell protease fluorescence; at 46.1 µM (top of the series); also: nearly all actives have a fitted effect of over 60% in size
Summary of the method: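 LYMP1-002 cells 2500/well; 5 hr 37 C pre-incubation; compound 16 hr 37 C; MultiTox-Fluor reagent 60 min RT; dead-cell fluor Ex/Em 485/520. Norm. to DMSO (0%) vs 15 uM tetraoctylammonium bromide (100%); Hill AC50.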

[29] = MultiTox-Fluor Cytotoxicity Assay - LYMP1-003 - Dead Cells (AID 961); settings: LYMP1-003 lymphoblastoid cells, dead-cell protease fluorescence; at 92.2 µM (top of the series); also: nearly all actives have a fitted effect of over 70% in size
Summary of the method: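 LYMP1-003 human lymphoblastoid cells (2500/well) exposed to compound 16 h at 37 C in complete medium; dead-cell protease read with bis-AAF-R110 fluorescence (Ex/Em 485/520) after 60 min at room temperature. Normalized to DMSO and 15 uM tetraoctylammonium bromide; AC50 from Hill fit.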

[30] = MultiTox-Fluor Cytotoxicity Assay - LYMP1-003 - Live Cells (AID 962); settings: LYMP1-003 lymphoblastoid cells, MultiTox-Fluor live-cell protease fluorescence; at 92.2 µM (top of the series);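 also: 0% = DMSO only and full loss = 92 µM tetraoctylammonium bromide; cytotoxic hits lower the live-cell protease signal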
Summary of the method: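 qHTS, 1536-well; 2500 cells/well LYMP1-003; 5 hr 37 C settle; cpd 16 hr 37 C; MultiTox-Fluor reagent 60 min RT; live-cell protease fluor. 405/510; Hill-fit AC50; tetraoctylammonium bromide pos. ctrl.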

[31] = Cell Viability - LYMP1-003 - Assay at 24 hr (AID 963); settings: LYMP1-003 lymphoblastoid cell viability; at 92.2 µM (top of the series);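 also: plate controls were DMSO only for no effect and tetraoctylammonium bromide positive control for full effect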
Summary of the method: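 Cells seeded at 2500/well, 5 hr at 37 C; compounds added; 24 hr at 37 C; CellTiter-Glo added, 30 min room temperature; luminescence read. Decrease in ATP taken as cytotoxicity, AC50 from Hill modelling.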

NC(=O)Nc1ccc([As](=O)(O)O)cc1
inactive: activity change, negative = inhibition [1] -3.62% [at 17.2 µM] | activity, negative = inhibition [2] 6.02% [at 17.2 µM] | activity change, negative = inhibition ([3]; at 25.6 µM (top of the series)) -0.459% | activity change, negative = inhibition ([3]; at 57.1 µM (top of the series)) -5.29% | activity change, negative = cytotoxicity [4] 5.17% | activity change, negative = cytotoxicity [5] 5.19% | Potency [6] | Potency [7] | Potency [8] | activity change, negative = cytotoxicity [9] 2.37% | activity change, negative = cytotoxicity [10] 12.1% | activation (PDE inhibition) [11] 5.6% | caspase-3 activation [12] 0.173% | caspase-3 activation [13] 0.514% | caspase-3 activation [14] 0.66% | caspase-3 activation [15] 1.4% | caspase-3 activation [16] 0.351% | caspase-3 activation [17] 1.14% | caspase-3 activation [18] 0.367% | caspase-3 activation [19] -1.08% | caspase-3 activation [20] -0.0086% | caspase-3 activation [21] -1.42% | caspase-3 activation [22] -2.28% | caspase-3 activation [23] -4.33% | activity change, negative = cytotoxic [24] -10.6% | cytotoxicity (dead cells) [25] -10.1% | activity change, negative = cytotoxicity [26] 6.38% | activity change, negative = cytotoxicity [27] -5.25% | cytotoxicity (dead cells) [28] 7.94% | cytotoxicity (dead cells) [29] -5.14% | activity change, negative = fewer live cells [30] -4.68% | viability change, negative = cytotoxic [31] 0.46%

Source: PubChem BioAssay (NCATS)
